Results reported in ChEMBL document CHEMBL3880421, “Indazole compounds and pharmaceutical compositions for inhibiting protein kinases, and methods for their use” (2003).

How the values were obtained:
[1] = Terminal half life in B6 mouse at 50 mg/kg, po by UV-HPLC analysis; type: ADME, organism-based; conditions: in vivo, read-out: beta t1/2 (converted)
[2] = Terminal half life in B6 mouse at 25 mg/kg, ip by UV-HPLC analysis; type: ADME, organism-based; conditions: in vivo, read-out: beta t1/2 (converted)

half-life [1]: 1.1 h
half-life [2]: 3.7 h
SMILES: O=C(Nc1cccc(Oc2ccc3c(/C=C/c4c[nH]cn4)n[nH]c3c2)c1)c1ccccc1
